Data reported in ChEMBL document CHEMBL1124221.
Several values for one entry are separate records, joined by “and”; a condition that tells them apart may be missing. Identical values can stand only once.

Protein sequences, listed by entry. Tags and fused reporters are not part of them.
UniProt P97266, whole entry: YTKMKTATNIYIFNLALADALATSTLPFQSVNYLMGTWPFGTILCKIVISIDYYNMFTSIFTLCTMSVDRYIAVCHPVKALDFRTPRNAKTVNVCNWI

Legend:
Rattus norvegicus [1] = test: Dose (po) required to produce 50% of the maximum possible analgesic effect, evaluated by rat-paw pressure assay
Rattus norvegicus [2] = test: Dose (sc) required to produce 50% of the maximum possible analgesic effect, evaluated by rat-paw pressure assay
Mu-type opioid receptor [3] = biological target: T1, Mu-type opioid receptor (Cavia porcellus, UniProt P97266); test: Binding affinity for the Opioid receptor mu 1
Mu-type opioid receptor [4] = biological target: T1, Mu-type opioid receptor; test: Binding affinity for the Opioid receptor mu 1; remark: listed apart in the source

SMILES	MPE50 (Rattus norvegicus [1]) [mg/kg]	MPE50 (Rattus norvegicus [2]) [mg/kg]	also measured
CN(C(=O)Cc1ccc(Cl)c(Cl)c1)C1CCCCC1N1CCCC1 (stereo not given)	43		
CN(CCc1cccs1)[C@@H]1CCCC[C@H]1N(C)C(=O)Cc1cccc2sccc12.Cl	>300		
CN(C(=O)Cc1cccc2occc12)[C@@H]1CCCC[C@H]1N1CCCC1.Cl	24		
CN(C(=O)Cc1cccc2occc12)[C@@H]1CCCC[C@H]1N1CCCCCC1.Cl	>100		
CN(C(=O)Cc1ccc(Cl)c(Cl)c1)C1CCC2(CCCO2)CC1N1CCCC1 (stereo not given)	7.8		
CN(CCc1ccccc1)[C@@H]1CCCC[C@H]1N(C)C(=O)Cc1cccc2sccc12.Cl	>100		
CN(C(=O)Cc1cccc2sccc12)[C@@H]1CCCC[C@H]1N1CCCC1.Cl		10	
CN(C(=O)Cc1cccc2sccc12)[C@@H]1CCCC[C@H]1N1CCCCCC1.Cl	120	>100	
Br.CN(C(=O)Cc1cccc2occc12)[C@@H]1CCCC[C@H]1N1CCCC1	12		
CN(C(=O)Cc1c[nH]c2ccccc12)[C@@H]1CCCC[C@H]1N1CCCC1		>300	
CN(C(=O)Cc1cccc2sccc12)[C@@H]1CCCC[C@H]1N1CCCC1			Ki (Mu-type opioid receptor [3]): 1 µM and 0.41 µM; Ki (Mu-type opioid receptor [4]): 0.88 µM
CC[C@@]12CCN(CC3CC3)C(C(=O)c3ccc(O)cc31)[C@@H]2C	70	0.3	
